“And” between values parts separate entries of the source, which are not always exact repeats. Equal entries are not always repeated. The list shows a part of the results, in another mix than the full data. Records with an inconclusive call do not appear. The source made the active and inactive calls. Calls come from the whole dose curve; as a rule, active = well fitted curve in the direction sought with a large enough effect in the polarisation (not every such curve was filed as active); inconclusive = small, poorly fitted or top-dose-only effect, or effect the other way, or a change in a side signal; inactive = no such curve, though single readings can be large or run the other way; the % refers to the polarisation.
assay: qHTS Assay for Inhibitors Targeting the Menin-MLL Interaction in MLL Related Leukemias: Competition With Fluorescein Labeled MLL-derived Peptide; settings: Fluorescence polarization, fluorescein-MLL peptide displacement from menin; at 61.4 µM (top of the series) unless noted; note: % of control where 0% means no effect

| Structure (SMILES) | FP activity change |
| --- | --- |
| CCC(C)(OOC(C)(C)C)OOC(C)(C)C | inactive: 5.45% |
| c1nnnn1CCn1cnnn1 | inactive: -11% |
| CP(=O)(Nc1ccc(SC(F)(F)F)cc1)Oc1ccc(F)cc1 (centres undefined) | inactive: 5.23% |
| CC(C)C(=O)NC(Sc1ccccc1)C(Cl)(Cl)Cl (centres undefined) | inactive: -2.86% |
| O=P(Nc1nccs1)(c1ccccc1)c1ccccc1 | inactive: -3.62% |
| CC(=O)Nc1ccc(Oc2c([N+](=O)[O-])cc([N+](=O)[O-])cc2[N+](=O)[O-])cc1 | inactive: -2.43% |
| CC(=O)Nc1ccc([As](=O)(O)O)c(O)c1 | inactive: -3.05% |
| CC(=O)c1ccc(N2CC2c2ccncc2)cc1 (centres undefined) | inactive: 3.55% |
| C[C@@H]1C=CCP(=O)(Oc2ccccc2)O1 (some centres undefined) | inactive: 1.85% |
| C[C@H]1OP(=O)(Oc2ccccc2)C[C@@H]2O[C@@H]21 (some centres undefined) | inactive: -0.782% |
| O=C(OCCN1CCN(CCOCc2ccccc2)CC1)C(O)(c1ccccc1)c1ccccc1 | inactive: 5.87% |
| CP(=O)(Nc1ccccc1F)Oc1ccccc1 (centres undefined) | inactive: -1.58% |
| CC(C)c1ccc(OP(C)(=O)Nc2ccc(SC(F)(F)F)cc2)cc1 (centres undefined) | inactive: 7.72% |
| CC(C)(C)C(=O)NC(Sc1ccccc1)C(Cl)(Cl)Cl (centres undefined) | inactive: -2.75% |
| CCOc1ccc(C2=NCC(CBr)S2)cc1 (centres undefined) | inactive: -0.845% |
| O=P1(Nc2nc3ccc(Cl)cc3s2)COc2ccccc2O1 (centres undefined) | inactive: 2.1% |
| CP(=O)(Nc1ccccc1)Oc1ccc(F)cc1 (centres undefined) | inactive: 0.589% |
| CN(C)C(=O)Oc1noc2ccccc12 | inactive: 1.12% |
| O=c1c2cc([N+](=O)[O-])ccc2[nH]c2c([N+](=O)[O-])cc([N+](=O)[O-])cc12 | inactive: 0.539% |
| CCCCCOc1ccc(NP(C)(=O)Oc2ccc(Cl)cc2Cl)cc1 (centres undefined) | inactive: -0.408% |
| Cc1ccccc1OP(=O)(Nc1ccccn1)Oc1ccccc1C | inactive: 0.855% |
| CC(=O)NC(SC(=S)N(CC(C)C)CC(C)C)C(Cl)(Cl)Cl (centres undefined) | inactive: 1.49% |

| Structure (SMILES) | FP activity change |
| --- | --- |
| Cc1ccc(OP(=O)(Nc2ccccn2)Oc2ccc(C)cc2)cc1 | inactive: 6.43% |
| COC(=O)c1cc2c(s1)N=C(c1ccccc1)N(C)P2(=O)N1CCOCC1 (centres undefined) | inactive: -2.83% |
| CCN(CC)CCCOC(=O)C(O)(c1ccccc1)C1CCCCC1 (centres undefined) | inactive: -0.0761% |
| CCC(=O)N1C2C3N(C(=O)CC)C1C1N(C(=O)CC)C(C(N1C(=O)CC)N3C(=O)CC)N2C(=O)CC | inactive: 4.93% |
| O=C(OC1CN2CCC1CC2)c1ccccc1 (centres undefined) | inactive: 4.89% and inactive: -1.74% |
| CCOC(=O)c1ccc(NP(C)(=O)Oc2ccc(F)cc2)cc1 (centres undefined) | inactive: -1.2% |
| COc1ccc(OP(C)(=O)Nc2ccc(SC(F)(F)F)cc2)cc1 (centres undefined) | inactive: -1.34% |
| CCNC(=S)/N=C(\N)N[N+](=O)[O-] | inactive: 1.31% |
| O=C(NC1CCS(=O)(=O)C1)NP(=S)(Oc1ccccc1)Oc1ccccc1 (centres undefined) | inactive: 3.92% |
| Cc1ccc(NP(=O)(Oc2cccc(C)c2)Oc2cccc(C)c2)nc1 | inactive: 3.64% |
| CCOC(=O)NC(Sc1ccccc1)C(Cl)(Cl)Cl (centres undefined) | inactive: 0.199% |
| c1ccc(-c2nn[nH]n2)c(-c2nn[nH]n2)c1 | inactive: -1.46% |
| CCN(N=Nc1nonc1N)c1nonc1N | inactive: 6.36% |
| CP(=O)(OCCOc1ccccc1)OCCOc1ccccc1 | inactive: -2.55% |
| CP(=O)(Nc1ccc(Cl)cc1Cl)Oc1ccccc1 (centres undefined) | inactive: 0.922% |
| Nc1cccc2ccc([As](=O)(O)O)cc12 | inactive: -0.957% |
| Cc1nc2ccc3ccccc3c2o1.O=[N+]([O-])c1cc([N+](=O)[O-])c(O)c([N+](=O)[O-])c1 | inactive: -0.754% |
| O=[N+]([O-])c1cc([N+](=O)[O-])c(CCN2CCOCC2)c([N+](=O)[O-])c1 | inactive: 0.997% |
| Cc1ccc(NP(=O)(Oc2ccccc2F)Oc2ccccc2F)nc1 | inactive: 2.57% |
| COc1ccccc1OP(C)(=O)Nc1ccc(C)c(C)c1 (centres undefined) | inactive: 0.738% |
| CCOP(=O)(Nc1ccccc1)OCC | inactive: 1.83% and inactive: -0.232% |
| Cc1cc(SC(NC(=O)c2ccc(F)cc2)C(Cl)(Cl)Cl)ncn1 (centres undefined) | inactive: 6.84% |

| Structure (SMILES) | FP activity change |
| --- | --- |
| COc1ccc(OP(C)(=O)Nc2ccccc2Br)cc1 (centres undefined) | inactive: 1.79% |
| O=C(O)c1ccccc1[As](=O)(O)O | inactive: -26.4% |
| CC(=O)Nc1ccc([As](=O)(O)O)cc1 | inactive: 1.46% |
| Cc1cc(C)cc(OP(C)(=O)Nc2cccc(C(F)(F)F)c2)c1 (centres undefined) | inactive: -0.962% |
| O=P(Nc1nc2ccc(Cl)cc2s1)(c1ccccc1)c1ccccc1 | inactive: 0.718% |
| COc1ccccc1OP(C)(=O)Nc1ccc(C)cc1C (centres undefined) | inactive: 3.66% |
| CP(=O)(Nc1ccccn1)Oc1ccccc1 (centres undefined) | inactive: -0.73% |
| CCc1ccc(OP(C)(=O)O)cc1 | inactive: -3.14% |
| CC(C)CC(=O)NC(Sc1ccc(Cl)cc1)C(Cl)(Cl)Cl (centres undefined) | inactive: -4.83% |
| O=[N+]([O-])c1cc([N+](=O)[O-])c(Nc2ccccn2)c([N+](=O)[O-])c1 | inactive: -2.16% |
| Cc1c(NP(C)(=O)Oc2ccc(C(C)C)cc2)c(=O)n(-c2ccccc2)n1C (centres undefined) | inactive: 0.933% |
| Nc1cc(N)c2nonc2c1[N+](=O)[O-] | inactive: 2.77% |
| Cc1c2non([O-])c-2c(C)[n+](=O)[n+]1[O-] | inactive: -0.296% |
| O=C(NC(Sc1ccncn1)C(Cl)(Cl)Cl)c1ccccc1 (centres undefined) | inactive: 6.05% |
| Oc1ccccc1CNc1ccccn1 | inactive: 0.556% |
| Cc1ccc(OP(=O)(Nc2nccs2)Oc2ccc(C)cc2)cc1 | inactive: -1.07% |
| COc1ccc(OP(C)(=O)Nc2ccccn2)cc1 (centres undefined) | inactive: 0.436% |
| COc1ccccc1OP(=O)(Nc1ccc(C)cn1)Oc1ccccc1OC | inactive: -0.666% |
| Clc1ccc(Cl)c(NC2=NCC(CBr)S2)c1 (centres undefined) | inactive: 0.93% |
| CN(C)CCOC(=O)C(O)(c1ccccc1)C1CCCC1 (centres undefined) | inactive: 1.7% |
